{"source": "patent US20230241150A1", "about": "“Compositions and Uses Thereof” (Natur-Tech Pharmacal Co., Ltd, priority 2020, published 2023)", "system": "brain of convulsive mice", "format": "in vivo, ICR mice", "details": "carbamazepine 80 mg/kg intragastric daily 7 days; PTZ 80 mg/kg i.p.; n=12", "procedure": "The mice in each group were given intragastric administration daily, for 7 consecutive days. 30 minutes after the last administration, except for the blank control group, the mice in the other groups were injected intraperitoneally with 80 mg/kg of PTZ to induce convulsions in the mice. Each mouse was placed in a separate cage for observation for 30 minutes, and behavioral changes such as stages of seizure, duration, latent period and mortality rate of the mice were recorded.\nAfter completing the behavioral observation determined by the above relevant indicators, experiments were conducted to study the effect of the composition on the contents of NO, Na-K-ATP, Asp, and 5-HT in the brain of convulsive mice. After the behavioral observation was over, the mice were immediately executed, and the brain tissues and the required organs were quickly taken out, weighed, and then the brain tissues were placed in liquid nitrogen and stored in a refrigerator at -80° C. Blood stains on the surface were washed off with pre-cooled saline before measurement. The tissues were then weighed and PBS was added in a volume ratio of 1:9 to fully homogenize the brain tissues. The homogenate was centrifuged at 3000 r/min for 20 minutes. The supernatant was collected as samples for subsequent ELISA test to detect the content of GABA, Glu, NO, Na^+-K^+-ATP, Asp, 5-HT, etc."}
{"smiles": "NC(=O)N1c2ccccc2C=Cc2ccccc21", "note": "[Carbamazepine]", "values": [{"measurement": "Asp content in the brain", "value": "42.1 ± 1.2", "unit": "pg/mL"}]}
